# Binding of CDR-mutated scFvs to a peptide of the spike HR2 region

From the AlphaSeq antibody data of Engelhart et al. 2022 (doi:10.1038/s41597-022-01779-4), copy in the FLAb collection.

Binding partner: SARS-CoV-2 spike HR2 peptide, sequence PDVDLGDISGINAS.

Each scFv is VH, three GGGGS repeats, VL, as in the parent Ab-95, and differs from it in the CDRs of the light chain only.
VH: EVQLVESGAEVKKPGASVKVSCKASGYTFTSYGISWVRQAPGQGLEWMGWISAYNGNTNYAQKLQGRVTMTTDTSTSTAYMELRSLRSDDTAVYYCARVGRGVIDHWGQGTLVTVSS
VL: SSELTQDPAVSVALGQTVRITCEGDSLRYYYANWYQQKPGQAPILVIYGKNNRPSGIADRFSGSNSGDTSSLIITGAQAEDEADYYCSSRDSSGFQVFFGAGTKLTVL

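Phage display of a naive human antibody library on the peptide gave the parent. AAYL52 was designed without a model: most single CDR substitutions and a random sample of double and triple ones. AlphaSeq pools MATa yeast showing the antibodies with MATalpha yeast showing the peptide. The frequency of each diploid, read from paired DNA barcodes, reflects how well the two displayed proteins bind. Read counts were normalised to the haploid input and turned into Kd by a linear fit to BCL2-family pairs of known affinity, for each replicate. The assay was run in three technical replicates.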

Each variant is given by its three light chain CDRs, as the data file delimits them; those of the parent are EGDSLRYYYAN, GKNNRPS, SSRDSSGFQVF. The read-out is the apparent dissociation constant on a log10 scale (nM): the lower, the stronger. The mean shown is taken over the replicates in which the pair was detected. "n.d." marks a missing value. The strain was present, yet no cells mated with the target were sequenced in that replicate, which points to weak or no binding. In this assay the parent's reference entry averaged 2.31; its copy inside this library read 2.25. Three control strains display no target. For library AAYL52, 28% of the pairings with them gave a signal, with a median of 3.91 and one signal in twenty below 2.90, so weak values seen in few replicates may be background. For each scFv, signals with the empty controls are counted beside the result, with their mean in brackets.

CDR-L1,CDR-L2,CDR-L3,"replicates, log10 nM",mean log10 Kd (nM),empty controls
EGDSLRYYYAN,GKNNRPS,SSKDSSVFRVF,1.83 / 1.64 / 2.07,1.85,1/9 (4.46)
EGDQLVYYYAN,GKNNRKS,SSRDSSGFQVF,3.31 / n.d. / 2.66,2.98,3/9 (3.60)
EGDSGRYYYAN,GKNFRPS,SSRDSSGFSVF,n.d. / 4.61 / 3.84,4.22,4/9 (3.79)
EGHSLRYYYAN,GKSNRPS,SSRDSSGFQVI,2.72 / 2.97 / 2.77,2.82,1/9 (3.40)
EGDSLRYYYKH,GKNNRPS,SSRDSLGFQVF,3.13 / n.d. / 3.21,3.17,2/9 (3.74)
EGDQLRYYYAN,GKNNRPS,SSRRSSGFQVF,n.d. / n.d. / n.d.,n.d.,2/9 (4.52)
EGDSLRYYYAN,GKNNVPS,ENRDSSGFQVF,3.05 / n.d. / 4.16,3.61,1/9 (4.32)
EGDSLRWYYAN,GQNNRPS,SSRDSSHFQVF,3.33 / 2.39 / 3.35,3.02,4/9 (3.98)
AGDSLDYYYAN,GKNNRPS,SSWDSSGFQVF,n.d. / n.d. / n.d.,n.d.,0/9
EGDSLRYYYAR,GKNNEPS,SSRSSSGFQVF,n.d. / n.d. / n.d.,n.d.,1/9 (5.17)
EGDSLRYYYAN,GKSNRPS,SSTDSSCFQVF,n.d. / 1.99 / 2.50,2.24,6/9 (3.84)
EGDSLRYYYAN,GKNNRPM,SSRDSSGLQQF,2.89 / 2.53 / 2.60,2.67,2/9 (3.94)
EGDSLRYYRAN,GKNNRPA,SSRDSIGFQVF,n.d. / n.d. / n.d.,n.d.,0/9
EGDSLQYYYAN,GKNNRPS,SSRDWSGWQVF,n.d. / n.d. / 4.06,4.06,4/9 (4.22)
EGDTLRYYYAN,GKNKRPS,SSRDMSGFQVF,5.05 / 3.38 / 2.98,3.80,1/9 (4.49)
EGDSLRYYWAN,GKNNRPS,SRRDSSPFQVF,3.53 / 3.07 / 3.71,3.43,5/9 (3.29)
EGDSLRYYYAN,YKRNRPS,SSRDSSGFQVF,n.d. / n.d. / n.d.,n.d.,2/9 (4.24)
EGDSLRPYYAN,GKNNRPS,SSRDSPGFQVH,3.25 / 3.02 / 4.19,3.49,4/9 (4.02)
EGDSLRYYYAN,RKNNRPS,SSRDSSGFHVF,3.24 / 4.42 / 4.03,3.89,2/9 (3.37)
EGDSLRYYYAN,GKNNRPS,SLRDASGYQVF,2.71 / 3.77 / 4.06,3.51,3/9 (4.44)
EGDSLRYYYYN,GKNNRPS,SSRDSSGAQVH,5.66 / 3.69 / 3.84,4.40,1/9 (4.80)
EGDSLRYYYAN,GKNNRPS,SSRCSSDFKVF,3.00 / 5.02 / 3.03,3.68,4/9 (3.06)
EGDSLRYYYAN,GKNNHPS,SSSDSSGFWVF,3.54 / 2.67 / 3.39,3.20,2/9 (3.25)
EGDSWRYYYAN,GVNNRPS,SSRQSSGFQVF,n.d. / n.d. / n.d.,n.d.,1/9 (3.65)
EGDSLRYYYAN,GKNNRPS,SSRDHSWFQRF,1.75 / 2.03 / 1.24,1.67,3/9 (3.53)
EGISLRYYYMN,GKNNRPS,SSRDSSGFCVF,3.82 / 3.60 / 3.71,3.71,1/9 (3.67)
EGDSNRYYYAN,LKNNRPS,SCRDSSGFQVF,2.87 / 2.52 / 3.30,2.90,1/9 (4.26)
EGRSLRYYYAN,GKNNRPY,SSRDSSGFLVF,2.90 / 3.15 / 3.51,3.19,3/9 (3.82)
EGDSLHYMYAN,GKNNRPK,SSRDSSGFQVF,2.28 / 2.77 / 1.48,2.18,1/9 (3.29)
EGDSARRYYAN,GKNNRRS,SSRDSSGFQVF,3.97 / n.d. / 3.17,3.57,4/9 (4.01)
EGDSWRYYYAN,FKVNRPS,SSRDSSGFQVF,4.42 / n.d. / n.d.,4.42,1/9 (3.90)

2 of these entries, quoted again:

CDR-L1	CDR-L2	CDR-L3	replicates, log10 nM	mean log10 Kd (nM)	empty controls
EGDQLVYYYAN	GKNNRKS	SSRDSSGFQVF	3.31 / n.d. / 2.66	2.98	3/9 (3.60)
EGDSLRYYYAN	GKNNRPS	SSKDSSVFRVF	1.83 / 1.64 / 2.07	1.85	1/9 (4.46)